Data: PubChem BioAssay AID651612 (The Scripps Research Institute Molecular Screening Center, 2012)
The entries are a selection whose mix differs from that of the whole data set. Activity calls are given as the source filed them. Rule as the data show it: active = inhibition above about 23%; inactive = the rest.

Sequences of proteins named here, by UniProt entry; tags and fusion partners are left off.
UniProt Q00G26, whole entry, looked up: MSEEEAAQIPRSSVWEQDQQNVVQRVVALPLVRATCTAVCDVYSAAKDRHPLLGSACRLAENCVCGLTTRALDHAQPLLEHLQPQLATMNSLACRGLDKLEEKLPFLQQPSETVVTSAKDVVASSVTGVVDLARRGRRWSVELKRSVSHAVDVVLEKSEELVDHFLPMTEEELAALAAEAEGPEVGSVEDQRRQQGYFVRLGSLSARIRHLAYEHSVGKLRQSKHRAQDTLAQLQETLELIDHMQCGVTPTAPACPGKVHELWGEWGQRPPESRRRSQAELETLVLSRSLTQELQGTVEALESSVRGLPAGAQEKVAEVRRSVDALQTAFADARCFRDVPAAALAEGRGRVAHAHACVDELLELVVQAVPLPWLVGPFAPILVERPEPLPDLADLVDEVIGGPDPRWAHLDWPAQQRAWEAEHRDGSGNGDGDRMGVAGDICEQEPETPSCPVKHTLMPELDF
UniProt Q8WTS1, whole entry, looked up: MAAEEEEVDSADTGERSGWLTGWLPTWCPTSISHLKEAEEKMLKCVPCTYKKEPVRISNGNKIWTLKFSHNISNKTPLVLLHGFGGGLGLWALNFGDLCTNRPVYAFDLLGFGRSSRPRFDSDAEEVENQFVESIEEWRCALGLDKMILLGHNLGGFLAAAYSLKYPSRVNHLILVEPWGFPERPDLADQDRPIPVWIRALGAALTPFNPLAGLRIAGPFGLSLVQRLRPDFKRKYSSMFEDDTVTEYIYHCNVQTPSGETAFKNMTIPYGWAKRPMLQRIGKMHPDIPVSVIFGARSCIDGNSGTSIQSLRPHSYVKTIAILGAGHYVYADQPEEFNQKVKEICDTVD

biological target: Perilipin-5 (Homo sapiens) + 1-acylglycerol-3-phosphate O-acyltransferase ABHD5 (Homo sapiens) (UniProt Q00G26+Q8WTS1); test: blockers of ABHD5 binding to perilipin-5 – biochemical, luminescence, confirmation (AID 651612); details: biochemical ABHD5-PLIN5 interaction, at 4 µM, stronger effect = higher value;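 also: 0% = DMSO vehicle wells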

**Q.** Which inhibition does the source give for `CCC(=O)N(c1ccccc1)C1(COC)CCN(CCc2cccs2)CC1` here?
**A.** The inhibition was active: 75.8%.
